This is a selection; strong and weak results do not stand in their true shares. Activity calls are given as the source filed them.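 The calls were made as follows: active = inhibition above the mean inhibition across every tested compound plus 3 SD (cut at about 22% in these data); inactive = the rest.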

Chains of the proteins cited; added tags and fusions are not shown.
UniProt Q00G26, whole entry, looked up: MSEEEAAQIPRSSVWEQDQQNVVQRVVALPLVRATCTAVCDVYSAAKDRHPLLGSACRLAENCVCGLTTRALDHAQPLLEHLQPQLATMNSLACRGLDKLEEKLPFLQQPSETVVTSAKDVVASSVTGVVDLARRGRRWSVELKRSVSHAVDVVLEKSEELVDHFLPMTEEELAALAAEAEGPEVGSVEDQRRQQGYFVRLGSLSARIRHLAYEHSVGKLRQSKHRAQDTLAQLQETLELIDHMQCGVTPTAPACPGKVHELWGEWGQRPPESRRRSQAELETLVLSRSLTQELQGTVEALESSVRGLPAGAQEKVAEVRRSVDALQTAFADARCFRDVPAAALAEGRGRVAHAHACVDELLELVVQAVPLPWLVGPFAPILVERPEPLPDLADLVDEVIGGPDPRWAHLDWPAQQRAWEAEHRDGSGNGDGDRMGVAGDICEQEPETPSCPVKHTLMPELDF
UniProt Q8WTS1, whole entry, looked up: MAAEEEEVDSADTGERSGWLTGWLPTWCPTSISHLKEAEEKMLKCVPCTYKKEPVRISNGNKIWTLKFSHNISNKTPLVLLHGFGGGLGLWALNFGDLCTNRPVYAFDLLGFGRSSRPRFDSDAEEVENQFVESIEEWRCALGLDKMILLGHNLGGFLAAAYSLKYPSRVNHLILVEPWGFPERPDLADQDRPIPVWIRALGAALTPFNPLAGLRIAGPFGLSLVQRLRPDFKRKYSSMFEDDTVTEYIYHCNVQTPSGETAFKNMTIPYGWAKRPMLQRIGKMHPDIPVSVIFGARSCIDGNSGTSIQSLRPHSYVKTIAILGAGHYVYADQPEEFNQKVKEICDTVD

In this assay the target is Perilipin-5 (Homo sapiens) + 1-acylglycerol-3-phosphate O-acyltransferase ABHD5 (Homo sapiens) (UniProt Q00G26+Q8WTS1). The assay can be described thus: ABHD5-PLIN5 interaction inhibitors, primary screen, cell lysate, split luciferase complementation, luminescence (AID 602281).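 Also: 0% = DMSO only wells and the 100% control is not disclosed.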 Particulars: Split G. princeps luciferase complementation, 4 h, at 4 µM, stronger effect = higher value.
The term inhibition denotes the relative decrease from the control value, in per cent. `CCC(=O)N(c1ccccc1)C1(COC)CCN(CCc2cccs2)CC1`: the inhibition is active: 46%. In the case of `CCC(=O)N(c1ccccc1)C1(COC)CCN(CCn2nnn(CC)c2=O)CC1`, the inhibition is inactive: 2.19%.

For the origin of these results see PubChem BioAssay AID602281 (The Scripps Research Institute Molecular Screening Center, 2012).
